Results: US20240042259A1

Legend:
[1] = Hydrolytic decontamination of methyl paraoxon followed by 31P NMR; settings: for extent of hydrolysis of methyl paraoxon (disappearance of δ31P at −4.89): glycine buffer/DMSO, pH 9.5, 31P NMR
[2] = Hydrolytic decontamination of triphenyl phosphate followed by 31P NMR, pH 9.5; settings: for extent of hydrolysis of triphenyl phosphate (disappearance of δ31P at −16.28): glycine buffer/DMSO, pH 9.5, 31P NMR
[3] = Hydrolytic decontamination of triphenyl phosphate at pH ~8.5 (31P NMR); settings: DMSO, pH ~8.5 (aqueous KOH), 0.00765 mmol imine, 0.0153 mmol triphenyl phosphate
[4] = glycine buffer/DMSO 1:1, pH 9.5, 25° C.
[5] = listed as benzaldehyde aminoguanidine imine

Compound	reaction time for hydrolysis of methyl paraoxon (midpoint of NMR acquisition) [1, 4] [s]	extent of hydrolysis of methyl paraoxon (disappearance of δ31P at −4.89) [1]	extent of hydrolysis of methyl paraoxon (disappearance of δ31P at −4.89) [1, 5]	reaction time for hydrolysis of triphenyl phosphate (midpoint of NMR acquisition) [2, 4] [s]	extent of hydrolysis of triphenyl phosphate (disappearance of δ31P at −16.28) [2]	extent of hydrolysis of triphenyl phosphate (disappearance of δ31P at −16.28) [2, 5]	reaction time for hydrolysis of methyl paraoxon ([1]; glycine buffer/DMSO 1:1, pH 9.5, 25° C., 10 mM agent vs 1 mM methyl paraoxon)	reaction time for hydrolysis of triphenyl phosphate ([2]; glycine buffer/DMSO 1:1, pH 9.5, 25° C., 10 mM agent vs 1 mM triphenyl phosphate)	extent of hydrolysis of methyl paraoxon (disappearance of δ31P at −4.89) ([1]; listed as pyridine-4-adehyde aminoguanidine imine)	extent of hydrolysis of triphenyl phosphate (disappearance of δ31P at −16.28) ([2]; listed as pyridine-4-aldehyde aminoguanidine imine)	disappearance of triphenyl phosphate δ31P at −16.28 [3]
N=C(N)N/N=C/c1ccccc1	48	quantitatively	complete disappearance	48	quantitatively	complete disappearance					
diacetyl monoxime	48			48			less than 1 min	less than 1 min			
N=C(N)N/N=C/c1ccncc1	48	quantitatively		48	quantitatively				complete disappearance	complete disappearance	
benzaldehyde aminoguanidine imine											disappearance over time
